# Values quoted from earlier work, collected in patent US8106007B2, “Conjugates of a polypeptide and a pentasaccharide” (N.V. Organon, priority 2005, dated 2012).
# Conditions: species not given; cited from earlier work
substance,measurement,value
interleukin-2: protein produced naturally in the body by white blood cells (T-lymphocytes),t ½,20 min
